Literature values in PMC6767236, “Selective Cannabinoid 2 Receptor Agonists as Potential Therapeutic Drugs for the Treatment of Endotoxin-Induced Uveitis” (Molecules, 2019).
Like-named read-outs stand apart in the source and are kept apart here.

Sequences of proteins named here, by UniProt entry; tags and fusion partners are left off.
UniProt P34972, whole entry: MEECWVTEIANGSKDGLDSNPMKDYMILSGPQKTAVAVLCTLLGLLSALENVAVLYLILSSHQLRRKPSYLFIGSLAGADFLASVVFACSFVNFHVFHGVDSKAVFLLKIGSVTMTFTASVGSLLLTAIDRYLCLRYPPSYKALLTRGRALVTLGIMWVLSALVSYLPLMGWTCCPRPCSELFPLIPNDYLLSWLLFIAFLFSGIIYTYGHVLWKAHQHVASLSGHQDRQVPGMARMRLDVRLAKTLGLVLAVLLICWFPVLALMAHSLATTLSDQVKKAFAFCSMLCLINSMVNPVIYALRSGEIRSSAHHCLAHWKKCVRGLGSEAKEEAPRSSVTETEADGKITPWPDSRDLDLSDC

Assays:
human CB2R [1] = molecular target: T1, human CB2R (Homo sapiens, UniProt P34972); conditions: read-out: hCB2R: Ki; [3H]-CP55940 displacement; * previously published; cited from earlier work
T1 construct: bgal (beta-galactosidase fragment of the PathHunter system, named only in the cell line's name); host or cells: CHO-K1 (CHOK1hCB2_bgal)

human CB2R [2] = molecular target: T1, human CB2R; conditions: read-out: hCB2R: cAMP EC50; * previously published; cited from earlier work
human CB2R [3] = molecular target: T1, human CB2R; conditions: read-out: hCB2R: beta arrestin EC50; * previously published; cited from earlier work

## CCCCCCC(C)(C)c1cc(OC)c([C@H]2C=C(CO)[C@H]3C[C@@H]2C3(C)C)c(OC)c1 [HU308, {(1S,4S,5S)-4-[2,6-Dimethoxy-4-(2-methyloctan-2-yl)phenyl]-6,6-dimethylbicyclo[3.1.1]hept-2-en-2-yl}methanol, reference compound]
Human CB2R [1]
  Ki: 10 nM
Human CB2R [2]
  EC50: 3 nM
Human CB2R [3]
  EC50: 101 nM
